# Binding of CDR-mutated scFvs to a peptide of the spike HR2 region

Binding partner: SARS-CoV-2 spike HR2 peptide, sequence PDVDLGDISGINAS.

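Library AAYL51 holds single substitutions and randomly drawn double and triple substitutions in the CDRs. AlphaSeq pools MATa yeast showing the antibodies with MATalpha yeast showing the peptide. Mating (16 h, 30 °C) was followed by selection of diploids and sequencing of their barcodes. Each replicate has its own calibration line, from reference interactions of the BCL2 family. The assay was run in three technical replicates.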

Ab-91 is the parent antibody, in scFv form: VL, then a 15-residue (Gly4Ser)3 linker, then VH. The light chain is unchanged in all variants.
VL: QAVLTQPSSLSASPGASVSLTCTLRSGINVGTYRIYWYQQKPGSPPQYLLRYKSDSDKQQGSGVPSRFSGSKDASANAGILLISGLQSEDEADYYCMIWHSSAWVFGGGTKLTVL
VH: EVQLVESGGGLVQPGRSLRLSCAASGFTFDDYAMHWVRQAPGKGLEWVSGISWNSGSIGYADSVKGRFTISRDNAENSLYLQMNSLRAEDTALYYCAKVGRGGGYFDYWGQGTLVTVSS

Substitutions are numbered in sequence along the VH above, starting at 1 (not Kabat). Affinities are written as log10 Kd with Kd in nM; a lower number is a better binder. Averages over replicates are reported, and they cover detected replicates only. A pair that was not seen in any replicate is written "no signal"; this usually means weak binding, but a binder can also be missed.

| # | changes | mean, log10 nM | replicates with signal |
|---|---|---|---|
| 1 | G50A+I58T+Y108K | no signal | 0/3 |
| 2 | F27N+S57G+G104K | no signal | 0/3 |
| 3 | W53I+G56V+D107A | 3.48 | 1/3 |
| 4 | Y32C+R101Q+D107F | no signal | 0/3 |
| 5 | F29G+S57P+I58W | no signal | 0/3 |
| 6 | M34N+S57C+G104F | no signal | 0/3 |
| 7 | S52W+D62S+K65D | 4.69 | 2/3 |
| 8 | G26S+I58P+D107R | no signal | 0/3 |
| 9 | W53I+S63D+G102K | 3.91 | 3/3 |
| 10 | D31R+N54Q | 2.11 | 3/3 |
| 11 | T28F+A33P+I58N | 4.29 | 3/3 |
| 12 | S52D+N54Y+G103H | no signal | 0/3 |
| 13 | Y32I+G59P+Y108M | 5.27 | 1/3 |
| 14 | A33G+I51C+G100P | 5.41 | 1/3 |
| 15 | G50H+G56N+G102N | no signal | 0/3 |
| 16 | W53M+R101L+G102Q | 0.75 | 3/3 |
| 17 | D31G+S52E+S57H | no signal | 0/3 |
| 18 | S55P+Y105I+Y108K | no signal | 0/3 |
| 19 | F29C+D62K+D107V | 4.56 | 3/3 |
| 20 | H35R+S57I+K65D | 4.00 | 1/3 |
| 21 | T28E+Y32R+I51H | no signal | 0/3 |
| 22 | V64Q+G104V | no signal | 0/3 |
| 23 | W53A+G103C+Y108S | no signal | 0/3 |
| 24 | D30A+G56V | 5.15 | 2/3 |
| 25 | S52E+A61F+V64W | 3.73 | 2/3 |
| 26 | D30R+A33D+G50M | no signal | 0/3 |
| 27 | F27A+D30H+Y32Q | 4.52 | 2/3 |
| 28 | S52C+V99T+G103A | no signal | 0/3 |
| 29 | F29R+A33S+S52A | no signal | 0/3 |
| 30 | G100V+D107R+Y108T | no signal | 0/3 |
| 31 | F27T+M34H+A61D | 4.27 | 2/3 |
| 32 | K65D+G103I+F106L | no signal | 0/3 |
| 33 | G26E+G59I+R101A | no signal | 0/3 |
| 34 | G59V+S63T+Y108S | 5.01 | 3/3 |
| 35 | G56T+G102M+Y108L | 3.62 | 2/3 |
| 36 | I51N+K65N+G103W | no signal | 0/3 |
| 37 | D31R+I58E+S63I | 0.22 | 3/3 |
| 38 | T28E+F29I+I51R | 4.63 | 1/3 |
| 39 | T28D+D31N+G102K | 3.38 | 3/3 |
| 40 | G50Y+A61E+G104V | 5.09 | 2/3 |
| 41 | T28G+K65F+G104V | 4.39 | 3/3 |
| 42 | G50L+D107Y | 3.09 | 1/3 |
| 43 | F29I+A61M+G100F | no signal | 0/3 |
| 44 | Y32C+H35G+V64N | 5.29 | 3/3 |
| 45 | I58H+S63R+G104N | no signal | 0/3 |
| 46 | S63M+R101Q+Y108D | 2.44 | 3/3 |
| 47 | T28C+S55M+G103C | 4.64 | 2/3 |
| 48 | S63E+Y105K+Y108H | 3.02 | 1/3 |
| 49 | G50L+S55K+A61V | no signal | 0/3 |
| 50 | Y32L+V64S+V99A | no signal | 0/3 |
| 51 | G59C+A61E+S63L | no signal | 0/3 |
| 52 | Y32K+V99M+Y108S | no signal | 0/3 |
| 53 | S57E+G100Q+G104S | 5.45 | 1/3 |
| 54 | H35A+A61T | no signal | 0/3 |
| 55 | Y32T+M34L+V99Y | 6.51 | 1/3 |
| 56 | W53Y+S57N+G100D | 4.16 | 1/3 |
| 57 | D30H+I51T+Y105E | no signal | 0/3 |
| 58 | F29V+N54W+Y105A | no signal | 0/3 |
| 59 | F27W+M34N+W53T | 4.55 | 1/3 |
| 60 | Y32W+V64K+Y108Q | 5.14 | 2/3 |
| 61 | F29A+G100P+G103N | no signal | 0/3 |
| 62 | W53I+G56F+Y105I | 4.42 | 3/3 |
| 63 | T28Y+S55I+G56K | no signal | 0/3 |
| 64 | S52A+R101Q+Y105S | 1.16 | 3/3 |
| 65 | D31F+H35W+Y108H | no signal | 0/3 |
| 66 | D31F+K65L+Y108Q | 0.74 | 3/3 |

Repeated from above, the 10 best binders with a signal in all replicates:

| changes | mean, log10 nM | replicates with signal |
|---|---|---|
| D31R+I58E+S63I | 0.22 | 3/3 |
| D31F+K65L+Y108Q | 0.74 | 3/3 |
| W53M+R101L+G102Q | 0.75 | 3/3 |
| S52A+R101Q+Y105S | 1.16 | 3/3 |
| D31R+N54Q | 2.11 | 3/3 |
| S63M+R101Q+Y108D | 2.44 | 3/3 |
| T28D+D31N+G102K | 3.38 | 3/3 |
| W53I+S63D+G102K | 3.91 | 3/3 |
| T28F+A33P+I58N | 4.29 | 3/3 |
| T28G+K65F+G104V | 4.39 | 3/3 |

As a blank, each scFv also met three strains without target: over library AAYL51, 21% of these pairings were detected, typically at 4.54 and seldom below 3.26.

The measurements come from Engelhart et al. 2022 (doi:10.1038/s41597-022-01779-4) through the FLAb antibody collection.